{"source": "patent US12139729B2", "about": "“Neurodegenerative disorders” (priority 2013, dated 2024)", "origin": "cited, not measured here", "settings": "cited from earlier work"}
{"smiles": "COc1ccc2c3c1O[C@H]1C[C@@H](O)C=C[C@@]31CCN(C)C2", "note": "[Galanthamine]", "values": [{"measurement": "CNS permeability (Table 3 feature)", "result": "Low permeability CNS"}]}
